From patent US20090111801A1, “SUBSTITUTED PYRAZINONE DERIVATIVES FOR USE AS A MEDICINE” (Janssen Pharmaceutica N.V., priority 2006, published 2009)

Chains of the proteins cited; added tags and fusions are not shown.
UniProt P18825, whole entry: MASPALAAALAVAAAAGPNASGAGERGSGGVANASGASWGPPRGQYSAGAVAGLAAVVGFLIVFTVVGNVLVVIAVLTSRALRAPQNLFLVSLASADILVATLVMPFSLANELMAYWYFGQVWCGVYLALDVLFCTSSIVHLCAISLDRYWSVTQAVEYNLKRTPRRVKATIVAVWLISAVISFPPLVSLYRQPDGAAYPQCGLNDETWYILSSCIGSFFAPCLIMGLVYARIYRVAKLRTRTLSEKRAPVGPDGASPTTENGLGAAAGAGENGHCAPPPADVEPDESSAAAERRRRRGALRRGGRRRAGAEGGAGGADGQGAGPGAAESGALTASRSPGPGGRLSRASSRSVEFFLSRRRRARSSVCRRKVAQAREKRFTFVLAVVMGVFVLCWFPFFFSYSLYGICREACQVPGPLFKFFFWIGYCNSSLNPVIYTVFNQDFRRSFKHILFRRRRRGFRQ
UniProt P31645, whole entry: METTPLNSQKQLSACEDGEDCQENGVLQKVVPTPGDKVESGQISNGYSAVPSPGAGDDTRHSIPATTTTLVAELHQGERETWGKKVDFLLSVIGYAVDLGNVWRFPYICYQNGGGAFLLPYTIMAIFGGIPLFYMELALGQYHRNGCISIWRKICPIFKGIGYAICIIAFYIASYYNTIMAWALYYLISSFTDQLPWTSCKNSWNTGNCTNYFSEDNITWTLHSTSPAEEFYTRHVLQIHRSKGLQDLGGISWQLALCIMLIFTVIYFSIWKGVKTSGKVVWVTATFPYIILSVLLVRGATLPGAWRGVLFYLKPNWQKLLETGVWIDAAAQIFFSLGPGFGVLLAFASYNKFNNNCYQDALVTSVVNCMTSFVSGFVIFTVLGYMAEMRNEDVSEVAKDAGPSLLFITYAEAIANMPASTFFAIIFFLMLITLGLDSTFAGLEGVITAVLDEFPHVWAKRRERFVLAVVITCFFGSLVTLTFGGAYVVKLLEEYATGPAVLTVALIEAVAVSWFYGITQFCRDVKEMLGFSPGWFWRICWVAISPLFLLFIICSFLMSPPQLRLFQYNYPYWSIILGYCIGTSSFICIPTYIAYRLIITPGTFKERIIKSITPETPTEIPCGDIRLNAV
UniProt P08913, whole entry: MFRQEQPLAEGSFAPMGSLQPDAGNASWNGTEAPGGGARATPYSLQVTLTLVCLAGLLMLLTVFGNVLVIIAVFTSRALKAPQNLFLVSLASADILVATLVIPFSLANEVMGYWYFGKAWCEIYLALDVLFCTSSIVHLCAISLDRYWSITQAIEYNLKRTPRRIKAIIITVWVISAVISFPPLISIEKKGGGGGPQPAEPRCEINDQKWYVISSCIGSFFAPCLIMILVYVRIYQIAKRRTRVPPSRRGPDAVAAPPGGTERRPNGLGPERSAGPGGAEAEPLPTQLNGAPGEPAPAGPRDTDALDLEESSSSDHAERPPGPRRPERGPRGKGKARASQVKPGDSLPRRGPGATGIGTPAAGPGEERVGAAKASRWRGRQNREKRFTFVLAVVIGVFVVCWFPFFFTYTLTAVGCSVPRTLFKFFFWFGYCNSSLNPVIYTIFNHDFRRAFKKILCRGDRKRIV

Assays:
hα2C receptor = hα2C receptor (Homo sapiens, UniProt P18825); assay: Radioligand binding experiment for α2C-adrenoceptor ([3H]raulwolscine, CHO cell membranes); settings: [3H]raulwolscine binding
5HT-Transporter = 5HT-Transporter (Homo sapiens, UniProt P31645); assay: Binding experiment for the 5HT-transporter ([3H]paroxetine, human platelet membranes); settings: [3H]paroxetine 0.5 nM
hα2A receptor = hα2A receptor (Homo sapiens, UniProt P08913); assay: Radioligand binding experiment for α2A-adrenoceptor ([3H]raulwolscine, CHO cell membranes); settings: [3H]raulwolscine binding

| h-α2C pIC50 (hα2C receptor; tested form: 2HCl) | h-5HTT pIC50 (5HT-Transporter; tested form: 2HCl) | h-α2A pIC50 (hα2A receptor; tested form: 2HCl) | h-α2C pIC50 (hα2C receptor) | h-5HTT pIC50 (5HT-Transporter) | h-α2A pIC50 (hα2A receptor) | Compound |
| --- | --- | --- | --- | --- | --- | --- |
| 7.6 | <5 | 6.9 | – | – | – | C/C(=C\c1ccccc1)CN1CCC(Nc2ncc[nH]c2=O)CC1 [7-1] |
| – | – | – | 6.8 | 5.4 | 6.2 | C/C(=C\c1ccccc1)CN1CCN(c2nccn(CC(c3ccccc3)c3ccccc3)c2=O)CC1 |
| – | – | – | 6.6 | 5.2 | 6.1 | CCCn1ccnc(NC2CCN(C/C=C/c3ccccc3)CC2)c1=O |
